Data: PubChem BioAssay AID602410 (Johns Hopkins Ion Channel Center, 2012)
This is a selection; strong and weak results do not stand in their true shares. Activity calls are given as the source filed them.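 The calls were made as follows: active = B-score under library mean minus 4 SD, starting fluorescence ratio at most library mean plus 5 SD; inactive = the rest.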

The chains behind the UniProt entries cited, without tags or fusion partners.
UniProt O14649, whole entry: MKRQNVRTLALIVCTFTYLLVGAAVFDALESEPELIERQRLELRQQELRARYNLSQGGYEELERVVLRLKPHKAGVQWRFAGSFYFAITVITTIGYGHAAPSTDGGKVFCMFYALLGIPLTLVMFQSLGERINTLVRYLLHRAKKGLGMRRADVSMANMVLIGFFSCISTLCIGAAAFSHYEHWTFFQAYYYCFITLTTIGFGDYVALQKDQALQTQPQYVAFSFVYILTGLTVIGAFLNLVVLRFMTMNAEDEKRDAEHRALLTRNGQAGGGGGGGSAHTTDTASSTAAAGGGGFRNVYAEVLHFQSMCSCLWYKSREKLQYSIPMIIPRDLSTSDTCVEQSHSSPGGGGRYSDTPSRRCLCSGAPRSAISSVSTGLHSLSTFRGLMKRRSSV

What follows are compounds tested against Potassium channel subfamily K member 3 (Homo sapiens) (UniProt O14649) (assay: blockers of TASK1 two-pore potassium channel – CHO cells, FluxOR thallium flux, B-score, primary screen (AID 602410)). Settings: CHO-KCNK3 thallium flux, FluxOR fluorescence; at 10 µM.

Structure (SMILES) | outcome
O=[As](O)(c1cccc(O)c1)c1cccc(O)c1 | inactive
Cc1cccc(OCC(=O)OC2CN3CCC2CC3)c1 (stereo unspecified) | inactive
CCOC(=O)c1ccc(NP(C)(=O)Oc2cc(C)cc(C)c2)cc1 (stereo unspecified) | inactive
O=C(OC1CN2CCC1CC2)c1ccc(Cl)cc1 (stereo unspecified) | inactive
CS(=O)(=O)c1ccc(Cl)c(NC(=O)COC(=O)C(O)(c2ccccc2)c2ccccc2)c1 | inactive
COc1ccccc1OP(C)(=O)Nc1cccc(Br)c1 (stereo unspecified) | inactive
COc1cc(C(=O)NCC2(N3CCOCC3)CCCCC2)cc(Cl)c1OC(C)C | inactive
O=[As](O)(O)c1cccnc1 | inactive
CN(C(=O)Cc1ccccc1)[C@@H]1CC[C@]2(CCCO2)C[C@H]1N1CCCC1 | inactive
CCOP1(=S)c2c(C)nn(CCC#N)c2N=C(c2ccc(F)cc2)N1C (stereo unspecified) | inactive
N#CCCN(C(=O)COC(=O)C(O)(c1ccccc1)c1ccccc1)c1ccc(F)cc1 | inactive
CN(C(=O)Cc1ccc(Cl)c(Cl)c1)[C@H]1CC[C@@]2(CCCO2)C[C@@H]1N1CCCC1 | inactive
CC1=NCCc2c1[nH]c1ccccc21.O=[N+]([O-])c1cc([N+](=O)[O-])c(O)c([N+](=O)[O-])c1 | inactive
CN(C)C(=O)c1cc([N+](=O)[O-])cc2c1-c1c(cc([N+](=O)[O-])cc1[N+](=O)[O-])C2=O | inactive
O=[N+]([O-])c1ccc2c(c1)nnn2O | inactive
NC(=O)Nc1ccc([As](=O)(O)O)cc1 | inactive
O=C(O)COc1ccc([As](=O)(O)O)cc1[N+](=O)[O-] | inactive
Nc1ccccc1[As](=O)(O)c1ccccc1 | inactive
O=P(Nc1nccs1)(c1ccccc1)c1nc2ccccc2s1 (stereo unspecified) | inactive

Structure (SMILES) | outcome
O=P(Nc1nccs1)(Oc1ccccc1)Oc1ccccc1 | inactive
O=C(O)c1cccc(Nc2c([N+](=O)[O-])cc([N+](=O)[O-])cc2[N+](=O)[O-])c1 | inactive
CCOP1(=S)c2c(C)nn(CCC#N)c2N=C(c2ccccc2F)N1C (stereo unspecified) | inactive
CS(=O)(=O)c1cc([N+](=O)[O-])c2no[n+]([O-])c2c1 | inactive
CP(=O)(Nc1ccc(SC(F)(F)F)cc1)Oc1ccccc1 (stereo unspecified) | inactive
Nc1cccc([As](=O)(O)c2ccccc2)c1 | inactive
CCCOc1ccc(NP(C)(=O)Oc2ccc(Cl)cc2)cc1 (stereo unspecified) | inactive
NS(=O)(=O)c1cccc(NC(=O)COC(=O)C(O)(c2ccccc2)c2ccccc2)c1 | inactive
O=P1(Nc2ccc(Br)cn2)COc2ccccc2OC1 | inactive
O=[As](O)(c1cccs1)c1cccs1 | inactive
Cc1ccc(OCC(=O)OC2CN3CCC2CC3)cc1 (stereo unspecified) | inactive
O=P1(Nc2ncccn2)COc2ccccc2OC1 | inactive
CN1CCCCC1COC(=O)C1(O)c2ccccc2CCc2ccccc21 (stereo unspecified) | inactive
COc1ccccc1OP(C)(=O)Nc1c(C)cccc1C (stereo unspecified) | inactive
CCOC(=O)C(CC)C1=NC(C)(C)Cc2ccccc21.O=[N+]([O-])c1cc([N+](=O)[O-])c(O)c([N+](=O)[O-])c1 (stereo unspecified) | inactive
O=[N+]([O-])c1cc([N+](=O)[O-])c(Nc2nnnn2CCO)c([N+](=O)[O-])c1 | inactive
CC1=C2N=C(C=C3N=C(C(C)=C4[N-][C@@](C)([C@@H]5N=C1[C@](C)(CCC(=O)NC[C@@H](C)OP(=O)([O-])O[C@H]1[C@@H](O)[C@@H](n6cnc7cc(C)c(C)cc76)O[C@@H]1CO)[C@H]5CC(N)=O)[C@@](C)(CC(N)=O)[C@@H]4CCC(N)=O)[C@@](C)(CC(N)=O)[C@@H]3CCC(N)=O)C(C)(C)[C@@H]2CCC(N)=O.[C-]#N.[Co+3] | inactive
CN(C)C1(CNC(=O)c2ccc(S(C)(=O)=O)cc2)CCCCC1 | inactive
CCCC1OP(=O)(Nc2ccccc2)OCC1CC (stereo unspecified) | inactive

Structure (SMILES) | outcome
O=C(/C=C/c1ccccc1)OC1CN2CCC1CC2 (stereo unspecified) | inactive
Cc1ccc(C(=O)OC2CN3CCC2CC3)cc1 (stereo unspecified) | inactive
CC1CCC(C(C)C)C(OP(=O)(Nc2ccccn2)c2ccccc2)C1 (stereo unspecified) | inactive
Cc1nn(-c2ccccc2)c2c1P(=O)(N1CCOCC1)N(C)C(c1ccccc1)=N2 (stereo unspecified) | inactive
COc1cc(C2NCCC3(OCCO3)C2(C)C)cc(OC)c1OC.O=[N+]([O-])c1cc([N+](=O)[O-])c(O)c([N+](=O)[O-])c1 (stereo unspecified) | inactive
CN(C(=O)Cc1ccc(Cl)c(Cl)c1)[C@@H]1CCCC[C@H]1N1CCCC1 | inactive
CC(C)/C=N\N=C(\N)N[N+](=O)[O-] | inactive
Cc1nc2ccc3ccccc3c2s1.O=[N+]([O-])c1cc([N+](=O)[O-])c(O)c([N+](=O)[O-])c1 | inactive
CC1(CBr)Cn2c(nc3ccccc3c2=O)S1 (stereo unspecified) | inactive
O=[N+]([O-])c1cc([N+](=O)[O-])c(-c2cnn(-c3ccccc3)c2)c([N+](=O)[O-])c1 | inactive
COc1ccccc1CNC(=O)COC(=O)C(O)(c1ccccc1)c1ccccc1 | inactive
CC(C)(C)C(=O)NC(Sc1ncccn1)C(Cl)(Cl)Cl (stereo unspecified) | inactive
Clc1n[nH]nc1-c1nn[nH][15n]1 | inactive
CCOP(=O)(NC(=NC(C)c1ccccc1)NC(C)c1ccccc1)OCC (stereo unspecified) | inactive
O=[N+]([O-])c1cc([N+](=O)[O-])c(-n2nnc3ccccc32)c([N+](=O)[O-])c1 | inactive
CCC1=CC2Cc3nc4ccc(Cl)cc4c(N)c3C(C1)C2 (stereo unspecified) | inactive
O=P1(Nc2ccccn2)COc2ccccc2OC1 | inactive
CCOP(=O)(Nc1ccc(C)cn1)OCC | inactive
